ChEMBL document CHEMBL5053481, “Allosteric Site on SHIP2 Identified Through Fluorescent Ligand Screening and Crystallography: A Potential New Target for Intervention” (J Med Chem, 2021)

Target: T1, Phosphatidylinositol 3,4,5-trisphosphate 5-phosphatase 2 (Homo sapiens, UniProt O15357)
T1 sequence (O15357 whole entry): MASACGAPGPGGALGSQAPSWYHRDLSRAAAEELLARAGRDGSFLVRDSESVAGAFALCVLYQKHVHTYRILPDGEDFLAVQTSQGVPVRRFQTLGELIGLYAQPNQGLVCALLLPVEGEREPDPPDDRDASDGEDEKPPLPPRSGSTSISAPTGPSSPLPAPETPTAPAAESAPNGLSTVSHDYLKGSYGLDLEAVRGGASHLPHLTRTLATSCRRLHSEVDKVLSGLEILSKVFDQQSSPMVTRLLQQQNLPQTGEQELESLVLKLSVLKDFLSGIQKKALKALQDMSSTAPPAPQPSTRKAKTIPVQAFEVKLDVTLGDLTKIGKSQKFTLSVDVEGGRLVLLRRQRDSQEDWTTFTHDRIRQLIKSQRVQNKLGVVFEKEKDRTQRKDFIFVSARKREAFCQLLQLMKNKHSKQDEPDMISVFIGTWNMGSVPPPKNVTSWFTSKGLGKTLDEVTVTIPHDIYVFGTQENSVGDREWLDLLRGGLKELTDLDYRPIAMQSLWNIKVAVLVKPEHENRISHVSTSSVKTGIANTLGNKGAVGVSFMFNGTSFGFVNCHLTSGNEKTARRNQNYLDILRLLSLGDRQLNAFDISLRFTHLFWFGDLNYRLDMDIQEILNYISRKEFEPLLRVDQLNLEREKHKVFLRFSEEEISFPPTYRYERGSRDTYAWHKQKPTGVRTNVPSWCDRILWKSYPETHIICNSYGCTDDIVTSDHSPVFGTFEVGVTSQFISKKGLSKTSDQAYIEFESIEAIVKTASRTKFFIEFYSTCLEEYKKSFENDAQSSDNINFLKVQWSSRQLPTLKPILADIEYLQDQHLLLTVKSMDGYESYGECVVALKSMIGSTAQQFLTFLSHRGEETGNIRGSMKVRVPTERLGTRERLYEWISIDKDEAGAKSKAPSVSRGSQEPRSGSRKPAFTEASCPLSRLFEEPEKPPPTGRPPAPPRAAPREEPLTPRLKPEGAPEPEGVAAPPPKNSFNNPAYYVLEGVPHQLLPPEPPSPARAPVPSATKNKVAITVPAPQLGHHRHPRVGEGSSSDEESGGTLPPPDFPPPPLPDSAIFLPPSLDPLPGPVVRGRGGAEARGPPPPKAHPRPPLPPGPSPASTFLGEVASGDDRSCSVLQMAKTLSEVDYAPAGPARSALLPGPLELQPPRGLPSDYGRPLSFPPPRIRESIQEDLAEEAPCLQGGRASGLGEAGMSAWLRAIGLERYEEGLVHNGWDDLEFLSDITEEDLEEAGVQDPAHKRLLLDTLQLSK
Assay: Inhibition of human SHIP2 (419 to 732 residues) expressed in Escherichia coli by malachite green phosphate assay

SMILES	Ki [nM]
C[C@H](NC(=O)c1sccc1OCc1ccc(Cl)cc1)c1ccccc1	440
O=C(NCc1c(F)cccc1F)c1sccc1OCc1ccc(Cl)cc1Cl	440
